Literature values as cited in paper PMC7216583, “Two old drugs, NVP-AEW541 and GSK-J4, repurposed against the Toxoplasma gondii RH strain” (Parasites & Vectors, 2020).

Experiments:
androgen receptor (AR) = conditions: read-out: Ki androgen receptor (AR); ref library vendor description; cited from earlier work
TS = conditions: read-out: Ki TS; ref library vendor description; cited from earlier work
[1] = target: intermediate-conductance Ca2+-activated K+ channel (IKCa1, KCa3.1); conditions: read-out: Kd IKCa1 (KCa3.1); ref library vendor description; cited from earlier work
Bcl-2 = target: Bcl-2; design: method as in library vendor description; conditions: ref library vendor description; cited from earlier work

## CC(=O)Nc1ccc(OC[C@](C)(O)C(=O)Nc2ccc([N+](=O)[O-])c(C(F)(F)F)c2)cc1 [Andarine (GTX-007)]
Androgen receptor (AR)
  Ki: 4 nM

## Nc1nc(=O)c2c(CCc3ccc(C(=O)N[C@H](CCC(=O)O)C(=O)O)cc3)c[nH]c2[nH]1 [Pemetrexed (Alimta)]
TS
  Ki: 1.3 nM

## Clc1ccccc1C(c1ccccc1)(c1ccccc1)n1cccn1 [TRAM-34]
[1]
  Kd: 20 nM

## CC1(C)CCC(c2ccc(Cl)cc2)=C(CN2CCN(c3ccc(C(=O)NS(=O)(=O)c4ccc(N[C@H](CCN5CCOCC5)CSc5ccccc5)c(S(=O)(=O)C(F)(F)F)c4)cc3)CC2)C1 [ABT-263 (Navitoclax)]
Bcl-2
  Ki: ≤ 1 nM
